Tests used:
[1] = tested on: 5637 cells; experiment: Cell adhesion assay on coated microtiter plates; format: cell-based, human; settings: crystal violet stain
Description: (§1) Cell adhesion assays: 96-well PVC microtiter plates were coated with Iso4-HSA or GNRs@Chit-Iso4 in 50 mM sodium phosphate, pH 7.3, containing 150 mM sodium chloride, (overnight incubation at 4 C). The plates were washed and blocked with 2% BSA in DMEM or RPMI-1640 (200 μl/well, 1 h). MB49-Luc and 5637 cells were detached with DPBS-E, washed twice with DPBS, and suspended in DMEM or RPMI-1640 containing 0.1% BSA (binding buffer-3), and added to the coated-plates (1.5×10^5 cells/well, 100 μl). After 1-2 h of incubation at 37° C., 5% CO2, the plates were washed with binding buffer-3. Adherent cells were fixed and stained with 0.5% crystal violet in 20% methanol. After washing with water, the dye was extracted from cells using a 10% acetic acid solution (140 μl/well) and the absorbance at 570 nm was measured using a microplate reader. The effect of urine on the pro-adhesive properties of GNRs@Chit-Iso4 was investigated as described above, except that the cells were seeded in binding buffer-3 or binding buffer-1 and various amounts of human urine (obtained from a healthy volunteer).

[2] = tested on: MB49-Luc cells; experiment: Cell adhesion assay on coated microtiter plates; format: cell-based, murine; settings: crystal violet stain
Description: as §1

Substance | cell adhesion to solid phase coated with the substance [1] | cell adhesion to solid phase coated with the substance [2]
*HSA: HSA activated with sulfo-SMCC and quenched with β-mercaptoethanol instead of Iso4 [reference compound] | but not the activated HSA lacking the peptide (*HSA), promoted and supported cell adhesion | but not the activated HSA lacking the peptide (*HSA), promoted and supported cell adhesion
Iso4-HSA: Iso4 chemically coupled to human serum albumin via sulfo-SMCC [reference compound] | promoted and supported cell adhesion | promoted and supported cell adhesion

Source: US20260097138A1, “BIOMATERIAL COATED NANOSTRUCTURES FOR PHOTOACOUSTIC IMAGING AND PHOTOTHERMAL THERAPY OF TUMOR LESIONS” (OSPEDALE SAN RAFFAELE S.R.L., priority 2022, published 2026)
